Reference: patent US20070049535A1, “PREVENTIVE/REMEDY FOR DIABETIC COMPLICATIONS USING OLIGOPEPTIDE” (priority 2004, published 2007)
pIC50: −log10 of the molar value.

Legend:
[1] = AGE2-producing capability by reaction of oligopeptide with glyceraldehyde (ELISA with anti-AGE2 polyclonal antibody); format: biochemical; settings: 10 mM amino acid or peptide + 100 mM glyceraldehyde, 0.1M phosphate buffer pH 7.4, 37° C., 1 week
Method: To 0.1M phosphate buffer (pH 7.4) containing 10 mM of any of Lys, Lys-Lys, Lys-Lys-Lys, and Lys-Lys-Lys-Lys (SEQ ID NO: 1) was added 100 mM glyceraldehyde and the mixture was reacted at 37° C. for 1 week. One week later, the AGE2 concentration of the reaction mixture was measured.

[2] = test system: AGE2 production by glyceraldehyde and bovine serum albumin; assay: Inhibition of AGE2 production by glyceraldehyde and serum albumin (ELISA with anti-AGE2 polyclonal antibody); settings: read-out: IC50 of inhibition of AGE2 production; 10 mM glyceraldehyde, 10 mg/ml bovine serum albumin, phosphate buffer pH 7.4, 37° C., 3 days

## NCCCC[C@H](NC(=O)[C@H](CCCCN)NC(=O)[C@@H](N)CCCCN)C(=O)O [Lys-Lys-Lys]
[1]
  AGE2 concentration: 6.8 U/ml
[2]
  pIC50: 3.28
